# Assay results published in patent publication US20060134602A1, “Methods of identifying cytotoxic effects in quiescent cells” (priority 2004, published 2006).
# Tested on: quiescent IMR-90 human lung fibroblasts
# Conditions: 24, 48, 72 hours
smiles,measurement,value
"CO[C@@]12[C@H](COC(N)=O)C3=C(C(=O)C(C)=C(N)C3=O)N1C[C@@H]1N[C@@H]12 [Mitomycin C, mitomycin C]",time dependence of cytotoxicity against quiescent fibroblasts,time-dependent increases in cytotoxicity
